According to PubChem BioAssay AID1020 (Sanford-Burnham Center for Chemical Genomics, 2008):
The entries are a selection whose mix differs from that of the whole data set. Calls of active or inactive are those of the source. Cut-off read from the data, not from the text of the source: active = inhibition above about 50%; inactive = the rest.

Tested on: glucose-6-phosphate dehydrogenase [Leuconostoc mesenteroides]
Assay: L. mesenteroides G6PDH inhibitors, counter-screen for G6PDH-coupled screening assays, biochemical, Leuconostoc mesenteroides enzyme (AID 1020)
Details: Purified L. mesenteroides G6PDH, diaphorase/resazurin coupled fluorescence, 45 min; at 5 µM; hits give high values

Question: CN(C)C1(CNC(=O)c2ccc(S(C)(=O)=O)cc2)CCCCC1 was tested. Which inhibition did it give?
Answer: Its inhibition is inactive: 6.9%.

Question: Which inhibition does the source give for Cc1nn(-c2ccccc2)c2c1P(=O)(N1CCOCC1)N(C)C(c1ccccc1)=N2 (stereo not drawn) here?
Answer: Its inhibition is inactive: -6.1%.

Question: How did the inhibition turn out when CC1CCC(C(C)C)C(OP(=O)(Nc2ccccn2)c2ccccc2)C1 (stereo not drawn) was run?
Answer: Its inhibition is inactive: 12.7%.

Question: How did the inhibition turn out when Cc1ccc(OCC(=O)OC2CN3CCC2CC3)cc1 (stereo not drawn) was run?
Answer: The inhibition was inactive: -17.9%.

Question: With O=P1(Nc2ccc(Br)cn2)COc2ccccc2OC1 as the compound, how does the inhibition read?
Answer: Its inhibition is inactive: 13.7%.

Question: How did the inhibition turn out when O=P1(Nc2ncccn2)COc2ccccc2OC1 was run?
Answer: The inhibition was inactive: 9.2%.

Question: Clc1n[nH]nc1-c1nn[nH][15n]1 was tested. Which inhibition did it give?
Answer: The inhibition was inactive: -0.6%.

Question: With O=P1(Nc2ccccn2)COc2ccccc2OC1 as the compound, how does the inhibition read?
Answer: Its inhibition is inactive: -1.4%.

Question: For CC(C)/C=N\N=C(\N)N[N+](=O)[O-], which inhibition is on record?
Answer: Its inhibition is inactive: 7.3%.

Question: CN(C(=O)Cc1ccc(Cl)c(Cl)c1)[C@@H]1CCCC[C@H]1N1CCCC1 was tested. Which inhibition did it give?
Answer: The inhibition was inactive: 15.9%.

Question: For Cc1cccc(OCC(=O)OC2CN3CCC2CC3)c1 (stereo not drawn), which inhibition is on record?
Answer: Its inhibition is inactive: -16.5%.

Question: For COc1cc(C(=O)NCC2(N3CCOCC3)CCCCC2)cc(Cl)c1OC(C)C, which inhibition is on record?
Answer: The inhibition was inactive: 0.2%.

Question: COc1cc(C2NCCC3(OCCO3)C2(C)C)cc(OC)c1OC (stereo not drawn) was tested. Which inhibition did it give?
Answer: Its inhibition is inactive: 7.1%.

Question: With CCOP(=O)(Nc1cccc2ccccc12)OCC as the compound, how does the inhibition read?
Answer: Its inhibition is inactive: 4.2%.

Question: How did the inhibition turn out when Cc1ccc(NCCc2c([N+](=O)[O-])cc([N+](=O)[O-])cc2[N+](=O)[O-])cc1 was run?
Answer: Its inhibition is inactive: -17.2%.

Question: For CCOP1(=S)c2c(C)nn(CCC#N)c2N=C(c2ccccc2F)N1C (stereo not drawn), which inhibition is on record?
Answer: Its inhibition is inactive: -8.3%.

Question: Which inhibition does the source give for O=P(Nc1nccs1)(Oc1ccccc1)Oc1ccccc1 here?
Answer: Its inhibition is inactive: 6.3%.

Question: For O=P(Nc1nccs1)(c1ccccc1)c1nc2ccccc2s1 (stereo not drawn), which inhibition is on record?
Answer: Its inhibition is inactive: -7.7%.

Question: Which inhibition does the source give for CCOP1(=S)c2c(C)nn(CCC#N)c2N=C(c2ccc(F)cc2)N1C (stereo not drawn) here?
Answer: Its inhibition is inactive: 12.9%.

Question: For O=[N+]([O-])c1ccc2c(c1)nnn2O, which inhibition is on record?
Answer: The inhibition was inactive: 1%.

Question: With Cc1ccc2nc3c(c(C)c2c1)CC(C(Cl)Cl)S3 (stereo not drawn) as the compound, how does the inhibition read?
Answer: The inhibition was inactive: -24.9%.

Question: How did the inhibition turn out when CC(C)NC(=O)NP(=O)(Oc1ccccc1)Oc1ccccc1 was run?
Answer: Its inhibition is inactive: 12%.

Question: CCN(CC)C(=S)SC(NC=O)C(Cl)(Cl)Cl (stereo not drawn) was tested. Which inhibition did it give?
Answer: Its inhibition is inactive: 2.8%.

Question: O=[N+]([O-])c1cc([N+](=O)[O-])c(-c2ccn[nH]2)s1 was tested. Which inhibition did it give?
Answer: The inhibition was inactive: -1.2%.

Question: With ClCCSc1nnc(-c2cccnc2)o1 as the compound, how does the inhibition read?
Answer: The inhibition was inactive: 8.4%.

Question: With COc1ccc2nc(NP(=O)(c3ccccc3)c3ccccc3)sc2c1 as the compound, how does the inhibition read?
Answer: The inhibition was inactive: -2.7%.

Question: With Cc1c2c(nc3ccccc13)SC(C(Cl)Cl)C2 (stereo not drawn) as the compound, how does the inhibition read?
Answer: Its inhibition is inactive: -9.9%.

Question: For O=C(OC1CN2CCC1CC2)C12CC3CC(CC(C3)C1)C2 (stereo not drawn), which inhibition is on record?
Answer: The inhibition was inactive: 1.8%.

Question: For Cc1cc(=O)[nH]c(N[N+](=O)[O-])n1, which inhibition is on record?
Answer: Its inhibition is inactive: 4.4%.

Question: With COc1ccc(N/C(=N/P(=O)(N2CCOCC2)N2CCOCC2)N2CCOCC2)cc1 as the compound, how does the inhibition read?
Answer: Its inhibition is inactive: 4.4%.

Question: How did the inhibition turn out when O=C(COc1ccccc1)OC1CN2CCC1CC2 (stereo not drawn) was run?
Answer: The inhibition was inactive: -4.7%.

Question: With COP1(=S)c2c(C)nn(CCC#N)c2N=C(c2ccc(F)cc2)N1C (stereo not drawn) as the compound, how does the inhibition read?
Answer: Its inhibition is inactive: 20.2%.

Question: With CCC(C)N(CC(C)C)C(=S)SC(NC(C)=O)C(Cl)(Cl)Cl (stereo not drawn) as the compound, how does the inhibition read?
Answer: The inhibition was inactive: 8.5%.

Question: For Cc1cc(SC(NC(=O)c2ccccc2)C(Cl)(Cl)Cl)nc(C(C)C)n1 (stereo not drawn), which inhibition is on record?
Answer: The inhibition was inactive: 2.8%.

Question: Which inhibition does the source give for O=P(Nc1ccccn1)(c1cccc2ccccc12)c1cccc2ccccc12 here?
Answer: Its inhibition is inactive: 8.4%.

Question: With Cc1cc(SC(NC=O)C(Cl)(Cl)Cl)ncn1 (stereo not drawn) as the compound, how does the inhibition read?
Answer: Its inhibition is inactive: 12.7%.

Question: O=[N+]([O-])c1ncn(CCn2ncnc2[N+](=O)[O-])n1 was tested. Which inhibition did it give?
Answer: The inhibition was inactive: 6.4%.

Question: Cc1ccc(NP(=O)(Oc2ccccc2)Oc2ccccc2)nc1 was tested. Which inhibition did it give?
Answer: The inhibition was inactive: -0.9%.

Question: With CCc1nc2c(n1)c1c(non1O)c1c2no[n+]1[O-] as the compound, how does the inhibition read?
Answer: The inhibition was inactive: 16.2%.

Question: How did the inhibition turn out when O=[N+]([O-])c1cc([N+](=O)[O-])c(CCNc2ccccc2)c([N+](=O)[O-])c1 was run?
Answer: Its inhibition is inactive: 7.1%.

Question: For O=[N+]([O-])c1cccc2n[nH]nc12, which inhibition is on record?
Answer: The inhibition was inactive: 8.4%.

Question: For CC(=O)N1C2C3N(C(C)=O)C1C1N(C(C)=O)C(C(N1C(C)=O)N3C(C)=O)N2C(C)=O, which inhibition is on record?
Answer: Its inhibition is inactive: 7.4%.

Question: How did the inhibition turn out when COc1ccc(C2=NCC(CBr)S2)cc1 (stereo not drawn) was run?
Answer: The inhibition was inactive: -5.8%.

Question: Which inhibition does the source give for CC(C)=N/N=C(\N)N[N+](=O)[O-] here?
Answer: The inhibition was inactive: 10.4%.

Question: Which inhibition does the source give for CN(C)C(=O)OCCc1n(C)cc[n+]1C here?
Answer: Its inhibition is inactive: -2.2%.

Question: With CCN(/C(=N/P(=O)(N1CCOCC1)N1CCOCC1)N1CCOCC1)c1ccc(OC)cc1 as the compound, how does the inhibition read?
Answer: Its inhibition is inactive: -4.1%.

Question: CN1CCCC(OC(=O)C(c2ccccc2)c2ccccc2)C1 (stereo not drawn) was tested. Which inhibition did it give?
Answer: Its inhibition is inactive: 2.8%.

Question: With Clc1ccc(Cl)c(NC2=NCC(CBr)S2)c1 (stereo not drawn) as the compound, how does the inhibition read?
Answer: Its inhibition is inactive: 5.5%.

Question: How did the inhibition turn out when COc1ccccc1OP(=O)(Nc1ccc(C)cn1)Oc1ccccc1OC was run?
Answer: The inhibition was inactive: 5.1%.

Question: How did the inhibition turn out when Cc1ccc(N/C(=N/P(=O)(N2CCOCC2)N2CCOCC2)N2CCOCC2)cc1 was run?
Answer: Its inhibition is inactive: 1.4%.

Question: Which inhibition does the source give for NC(=O)c1cc([N+](=O)[O-])cc([N+](=O)[O-])c1N here?
Answer: Its inhibition is inactive: -3.1%.

Question: With Oc1ccccc1CNc1ccccn1 as the compound, how does the inhibition read?
Answer: The inhibition was inactive: 0.8%.

Question: Which inhibition does the source give for O=C(NC(Sc1ccncn1)C(Cl)(Cl)Cl)c1ccccc1 (stereo not drawn) here?
Answer: The inhibition was inactive: 5.5%.

Question: How did the inhibition turn out when Cc1c2non([O-])c-2c(C)[n+](=O)[n+]1[O-] was run?
Answer: Its inhibition is inactive: 6.9%.

Question: For CC(C)CC(=O)NC(Sc1ccc(Cl)cc1)C(Cl)(Cl)Cl (stereo not drawn), which inhibition is on record?
Answer: The inhibition was inactive: 2.4%.

Question: With Cc1cc(SC(NC(=O)c2ccc(F)cc2)C(Cl)(Cl)Cl)ncn1 (stereo not drawn) as the compound, how does the inhibition read?
Answer: Its inhibition is inactive: -2.2%.

Question: For CCOP(=O)(Nc1ccccc1)OCC, which inhibition is on record?
Answer: Its inhibition is inactive: 2.9%.

Question: For CCN(N=Nc1nonc1N)c1nonc1N, which inhibition is on record?
Answer: The inhibition was inactive: 5.9%.

Question: For c1ccc(-c2nn[nH]n2)c(-c2nn[nH]n2)c1, which inhibition is on record?
Answer: The inhibition was inactive: 1.6%.

Question: CCOC(=O)NC(Sc1ccccc1)C(Cl)(Cl)Cl (stereo not drawn) was tested. Which inhibition did it give?
Answer: Its inhibition is inactive: 2.9%.

Question: Which inhibition does the source give for CCNC(=S)/N=C(\N)N[N+](=O)[O-] here?
Answer: Its inhibition is inactive: 0.2%.

Question: For O=C(NC1CCS(=O)(=O)C1)NP(=S)(Oc1ccccc1)Oc1ccccc1 (stereo not drawn), which inhibition is on record?
Answer: The inhibition was inactive: 18%.

Question: Which inhibition does the source give for O=c1c2cc([N+](=O)[O-])ccc2[nH]c2c([N+](=O)[O-])cc([N+](=O)[O-])cc12 here?
Answer: The inhibition was inactive: 13.5%.

Question: With CCC(=O)N1C2C3N(C(=O)CC)C1C1N(C(=O)CC)C(C(N1C(=O)CC)N3C(=O)CC)N2C(=O)CC as the compound, how does the inhibition read?
Answer: The inhibition was inactive: 5.4%.

Question: For COC(=O)c1cc2c(s1)N=C(c1ccccc1)N(C)P2(=O)N1CCOCC1 (stereo not drawn), which inhibition is on record?
Answer: The inhibition was inactive: 5.7%.

Question: For Cc1ccc(OP(=O)(Nc2ccccn2)Oc2ccc(C)cc2)cc1, which inhibition is on record?
Answer: The inhibition was inactive: 3.4%.

Question: How did the inhibition turn out when CC(=O)NC(SC(=S)N(CC(C)C)CC(C)C)C(Cl)(Cl)Cl (stereo not drawn) was run?
Answer: The inhibition was inactive: 8%.

Question: How did the inhibition turn out when CC(C)(C)C(=O)NC(Sc1ccccc1)C(Cl)(Cl)Cl (stereo not drawn) was run?
Answer: The inhibition was inactive: 2.1%.

Question: How did the inhibition turn out when O=P1(Nc2nc3ccc(Cl)cc3s2)COc2ccccc2O1 (stereo not drawn) was run?
Answer: Its inhibition is inactive: 2.2%.

Question: For CCOc1ccc(C2=NCC(CBr)S2)cc1 (stereo not drawn), which inhibition is on record?
Answer: The inhibition was inactive: 3.7%.

Question: CC(=O)Nc1ccc(Oc2c([N+](=O)[O-])cc([N+](=O)[O-])cc2[N+](=O)[O-])cc1 was tested. Which inhibition did it give?
Answer: The inhibition was inactive: 6.6%.

Question: Which inhibition does the source give for c1nnnn1CCn1cnnn1 here?
Answer: The inhibition was inactive: -1.8%.

Question: For CC(C)C(=O)NC(Sc1ccccc1)C(Cl)(Cl)Cl (stereo not drawn), which inhibition is on record?
Answer: The inhibition was inactive: -2.2%.

Question: How did the inhibition turn out when O=P(Nc1nccs1)(c1ccccc1)c1ccccc1 was run?
Answer: The inhibition was inactive: 1%.

Question: Which inhibition does the source give for O=P(Nc1ccccn1)(c1ccc(Br)cc1)c1ccc(Br)cc1 here?
Answer: Its inhibition is inactive: 16.1%.

Question: Which inhibition does the source give for O=C(OC1CN2CCC1CC2)c1cccc(Cl)c1 (stereo not drawn) here?
Answer: The inhibition was inactive: 10.6%.

Question: For C(Cc1nn[nH]n1)Cc1nn[nH]n1, which inhibition is on record?
Answer: The inhibition was inactive: 6.6%.

Question: Which inhibition does the source give for CC(=O)NC(SC(=S)N(C)C)C(Cl)(Cl)Cl (stereo not drawn) here?
Answer: The inhibition was inactive: -1.6%.
